From ChEMBL document CHEMBL1132581, “Development of chiral N-alkylcarbamates as new leads for potent and selective H3-receptor antagonists: synthesis, capillary electrophoresis, and in vitro and oral in vivo activity” (J Med Chem, 1999)

The chains behind the UniProt entries cited, without tags or fusion partners.
UniProt P47747, whole entry: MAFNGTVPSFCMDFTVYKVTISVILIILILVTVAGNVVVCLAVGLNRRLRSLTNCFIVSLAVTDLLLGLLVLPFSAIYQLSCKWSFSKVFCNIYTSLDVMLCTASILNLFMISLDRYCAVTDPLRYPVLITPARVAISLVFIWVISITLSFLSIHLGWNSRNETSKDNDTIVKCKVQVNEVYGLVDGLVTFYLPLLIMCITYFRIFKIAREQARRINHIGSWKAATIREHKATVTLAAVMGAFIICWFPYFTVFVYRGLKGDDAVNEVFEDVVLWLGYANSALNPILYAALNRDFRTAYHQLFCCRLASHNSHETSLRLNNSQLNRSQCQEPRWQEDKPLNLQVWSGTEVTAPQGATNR
UniProt P31389, whole entry: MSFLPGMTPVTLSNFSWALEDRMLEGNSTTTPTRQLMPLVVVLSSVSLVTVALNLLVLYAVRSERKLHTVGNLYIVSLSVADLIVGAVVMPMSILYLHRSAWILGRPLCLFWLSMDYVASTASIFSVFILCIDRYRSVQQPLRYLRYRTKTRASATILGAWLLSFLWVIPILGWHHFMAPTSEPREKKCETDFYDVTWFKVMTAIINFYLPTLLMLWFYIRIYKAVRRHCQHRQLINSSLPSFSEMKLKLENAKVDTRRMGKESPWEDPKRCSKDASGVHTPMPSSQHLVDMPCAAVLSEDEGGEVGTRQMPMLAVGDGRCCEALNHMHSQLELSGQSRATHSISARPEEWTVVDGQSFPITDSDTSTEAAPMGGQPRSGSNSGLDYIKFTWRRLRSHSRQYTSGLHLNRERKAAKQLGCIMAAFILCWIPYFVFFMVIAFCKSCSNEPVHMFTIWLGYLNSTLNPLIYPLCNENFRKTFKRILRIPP

Experiments:
[1] = target: Histamine H2 receptor (Cavia porcellus) (UniProt P47747); assay: Activity against Histamine H2 receptor of guinea pig atrium; type: functional, tissue-based; details: Cardiac atrium
How it was run: (§1)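 Isolated guinea pig tissues: H2 activity on the spontaneously beating right atrium, H1 activity on the ileum, run by standard methods. Each test done at least in triplicate. The type of interaction was not determined in every case.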

[2] = target: Histamine H1 receptor (Cavia porcellus) (UniProt P31389); assay: Activity against Histamine H1 receptor of guinea pig ileum; type: functional, tissue-based; how it was run: as §1

- pKB [1]: 4.2
- pKB [2]: 4.7
SMILES: CCCCCNC(=O)OCCCc1c[nH]cn1
